System: human myeloma cells MM.1S
Experiment: MM.1S cell viability, CCK-8 method
Details: read-out: MM.1S IC50, 72 h treatment

Cc1ccc(-n2c(C)nnc2-c2ccc3c(c2)N(C2CC2)C(C)C(=O)N3C)cc1 (stereo not shown)
IC50: 4.16 nM
